# Measured values as given in patent US5110911A, “Human tumor-associated Thomsen-Friedenreich antigen” (Biomira, Inc., priority 1989, dated 1992).
# Tests used:
# MAb 49H.8 = test: Heterologous sandwich radioimmunoassay for TF antigen, MAb 49H.8 as catcher, 125I-PNA as probe; format: binding, murine; details: 125I activity per well (gamma counter), SD printed beside, dilution or amount of each sample printed in its row head
# Description: (§1) Nonionic detergent (NP-40 or octyl glucoside) extracts of 647V and LS174T cells, culture media conditioned by these cells, and a pleural effusion from a breast cancer patient (PE 89) were tested for TF antigen using a heterologous sandwich radioimmunoassay. Epiglycanin, a murine TF antigen, and TF(α)-HSA, a synthetic TF antigen, served as positive control samples, while HSA, fresh culture media, and detergent extraction buffers served as negative control samples. An isotype matched (IgM) myeloma protein (MOPC-104E) was used further to confirm the specificity of this assay.
# (§2) Breakable strips of microtitre wells were coated with MAb 49H.8 or a control antibody (MOPC-104E), 1 μg/well, by overnight incubation at 4° C. The wells were then serially incubated with FBS 5% in PBS at 37° C. for 30 minutes, with antigen solution at 37° C. for two hours, and with radioiodinated PNA (2×10^5 cpm/well) at room temperature for two hours. The wells were washed with PBS containing 0.05% Tween-20 after each of the above steps. Each well was counted for ^125 I activity using a gamma counter.
# MOPC-104E = test: Sandwich radioimmunoassay with control antibody MOPC-104E as catcher, 125I-PNA as probe; format: binding; details: isotype matched control catcher; 125I activity per well; SD printed beside
# Description: as §1, §2
Substance,"Sandwich Radioimmunoassay for TF Antigen using 125I-PNA as a Probe, MAb 49H.8 as Catcher (MAb 49H.8)","Sandwich Radioimmunoassay for TF Antigen using 125I-PNA as a Probe, MOPC-104E as Catcher (MOPC-104E)","Sandwich Radioimmunoassay for TF Antigen using 125I-PNA as a Probe, MAb 49H.8 as Catcher (MAb 49H.8; listed as TF(o)-HSA)"
HSA: negative control sample; 10 μg in Table 1,351,278,
"TF(α)-HSA: a synthetic TF antigen, positive control; 10 μg in Table 1",3 997,465,positive reactivity
